Reference: PubChem BioAssay AID602274 (Sanford-Burnham Center for Chemical Genomics, 2012)
This is a selection; strong and weak results do not stand in their true shares. The source made the active and inactive calls. No stated cut-off is given here; in the data, active means survival enhancement above about 18%; inactive means the rest.

Assay: compounds raising survival of dissociated human iPSCs – cell-based, ATPlite luminescence, primary screen (AID 602274);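 further: cells exposed to compounds for 16 hours before the ATP read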
Conditions: hiPSC single-cell survival, at 20 µM, hits give high values, 100% = ROCK inhibitor wells, 0% = DMSO

Row | SMILES | survival enhancement
1 | CP(=O)(Nc1ccc(SC(F)(F)F)cc1)Oc1ccc(F)cc1 (stereo not drawn) | inactive: 1.2%
2 | CCOP(C)(=S)SCC(=O)NC(C)(CC)C(=O)O (stereo not drawn) | inactive: 3.9%
3 | CP(=O)(Nc1ccc2c(c1)OCCO2)Oc1ccccc1 (stereo not drawn) | inactive: -2.5%
4 | O=[N+]([O-])c1cc([N+](=O)[O-])c(C(F)(F)F)c([N+](=O)[O-])c1O | inactive: -0.6%
5 | Cc1ccccc1NP(C)(=O)Nc1ccccc1C | inactive: -1.4%
6 | CN(C)C1(CNC(=O)c2ccc(Cl)c(S(N)(=O)=O)c2)CCCCC1 | inactive: 0.1%
7 | COc1ccc(OP(C)(=O)Nc2cccc(Br)c2)cc1 (stereo not drawn) | inactive: 0.1%
8 | COc1ccc(NP(C)(=O)Oc2ccccc2OC)cc1 (stereo not drawn) | inactive: 1.7%
9 | CN(C)CCOC(=O)C(O)(c1ccccc1)C1CCCCC1 (stereo not drawn) | inactive: -3.5%
10 | O=[N+]([O-])c1cc([N+](=O)[O-])c(NCC2CCS(=O)(=O)C2)c([N+](=O)[O-])c1 (stereo not drawn) | inactive: 0.5%
11 | Cc1cc(-c2cccc3ccccc23)c(C)cn1.O=[N+]([O-])c1cc([N+](=O)[O-])c(O)c([N+](=O)[O-])c1 | inactive: 2.5%
12 | O=[N+]([O-])c1ccc(OP2(=O)COCCO2)cc1 (stereo not drawn) | inactive: -0.4%
13 | Cc1c(C(c2ccc3c(c2)OCO3)c2c(C)n(C)n(-c3ccccc3)c2=O)c(=O)n(-c2ccccc2)n1C.O=[N+]([O-])c1cc([N+](=O)[O-])c(O)c([N+](=O)[O-])c1 | inactive: -0.5%
14 | CCN(CC)CCCNc1ccccc1[N+](=O)[O-].O=[N+]([O-])c1cc([N+](=O)[O-])c(O)c([N+](=O)[O-])c1 | inactive: -1.6%
15 | COc1ccc(OP(C)(=O)Nc2ccc(SC(F)(F)F)cc2)cc1 (stereo not drawn) | inactive: -1.6%
16 | CCOC(=O)c1ccc(NP(C)(=O)Oc2ccc(F)cc2)cc1 (stereo not drawn) | inactive: 1.7%
17 | CCN(CC)CCCOC(=O)C(O)(c1ccccc1)C1CCCCC1 (stereo not drawn) | inactive: 3.4%
18 | Cc1c([N+](=O)[O-])cc([N+](=O)[O-])c(Br)c1[N+](=O)[O-] | inactive: 2.6%
19 | CCCCCOc1ccc(NP(C)(=O)Oc2ccc(Cl)cc2Cl)cc1 (stereo not drawn) | inactive: -0.7%
20 | O=[N+]([O-])c1cc([N+](=O)[O-])c(OC2CCCCC2O)c([N+](=O)[O-])c1 (stereo not drawn) | inactive: -0.3%
21 | CP(=O)(Nc1ccccc1)Oc1ccc(F)cc1 (stereo not drawn) | inactive: 2%
22 | O=[N+]([O-])c1cc([N+](=O)[O-])c(Nc2ccc(Cl)cc2)c([N+](=O)[O-])c1 | inactive: -3.2%
23 | CC(C)c1ccc(OP(C)(=O)Nc2ccc(SC(F)(F)F)cc2)cc1 (stereo not drawn) | inactive: 0.3%
